The values that follow are results of earlier work, collected in US8299062B2, “Pharmaceutical compositions and methods for preventing, treating, or reversing neuronal dysfunction” (dated 2012).

One data set has as its system AChE. The conditions noted are these: given less than 3 hours prior to soman exposure.
The next data set deals with NMDA receptor (Rattus norvegicus, UniProt P35439). Conditions: listed as (−)-huperzine A.
The conditions of data set [1]: oral.
The conditions of data set [2]: tablet, oral.
For data set [3] the following is noted: preclinical studies.

Read-outs that look alike come from different tables or passages of the source.

For the compound `CN(C)C(=O)Oc1ccc[n+](C)c1`, the “AChE inhibition after soman exposure” value in the data set on AChE is listed as “increased levels of AChE inhibition”.
Take “5,9-Methanocycloocta(b)pyridin-2(1H)-one, 5-amino-11-ethylidene-5,6,9,10-tetrahydro-7-methyl-, (5R,9R,11E)-”: the “NMDA receptor / calcium ion channel block, potency of the enantiomers compared” value on NMDA receptor was “equal potency”.
`C/C=C1\[C@H]2C=C(C)C[C@]1(N)c1ccc(=O)[nH]c1C2`: the “patients showing side effects” value (1200 μg/day) is recorded as “approximately 50%”. For the same compound, the tolerability result (daily oral 300-400 μg) was “well tolerated with a low incidence of side effects”. For the same compound, the results for the “time to peak plasma concentrations” value in data set [1] and in data set [2] were 10 to 30 min and “approximately 79.6 minutes”, respectively. In addition, in data set [2], the elimination half-life entry is “approximately 288.5 minutes”.
Regarding `CN1[C@@H]2CC[C@H]1C[C@@H](OC(=O)C(CO)c1ccccc1)C2` (some centres unmarked), in data set [3], the “effect on acute toxicity associated with huperzine A” value was “reduced acute toxicity”.
